Like-named read-outs stand apart in the source and are kept apart here.

Amino acid sequences for entries named in this document (tags omitted). A change or cut given only in a name is not applied to a line headed by its entry.
UniProt P35377: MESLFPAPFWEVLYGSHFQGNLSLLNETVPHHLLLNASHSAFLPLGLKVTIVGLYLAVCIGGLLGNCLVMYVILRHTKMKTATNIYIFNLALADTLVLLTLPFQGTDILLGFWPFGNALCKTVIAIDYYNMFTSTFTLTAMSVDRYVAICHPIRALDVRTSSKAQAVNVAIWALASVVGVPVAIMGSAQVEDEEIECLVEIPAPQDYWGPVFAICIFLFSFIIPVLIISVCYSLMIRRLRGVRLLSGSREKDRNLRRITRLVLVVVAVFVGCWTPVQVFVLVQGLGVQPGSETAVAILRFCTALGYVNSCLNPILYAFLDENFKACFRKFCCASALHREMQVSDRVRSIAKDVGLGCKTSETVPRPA

The target of one series is T1, ORL-1 receptor (Mus musculus, UniProt P35377).
T1 construct: Neuro-2a cells were a gift from Professor John Mattick's laboratory; endogenous in cells; host or cells: Neuro-2a cells
Description: Agonist functional activity assessed by ERK phosphorylation (pERK) in Neuro-2a cells. The class given is cell-based. Particulars: for EC50 / log EC50 / -log EC50 ± SEM: agonist pERK activity; for EC50 / -log EC50 ± SEM: Neuro-2a cells; for EC50: read-out: EC50; for log EC50: printed as log EC50 with negative sign; for Emax: N2a, agonist pERK, controls PBS (0%) and 1 μM nociceptin1-17-OH (100%). As for the experimental part: Neuro-2a cells were a gift from Professor John Mattick's laboratory (Institute of Molecular Bioscience, University of Queensland) and were cultured in Gibco® DMEM (Invitrogen, CA, USA) supplemented with 10% FBS (Invitrogen, CA, USA), GIBCO® Pen/Strep (50 units/mL penicillin and 50 μg/mL streptomycin, Invitrogen, CA, USA) and GIBCO® NEAA (1× concentration, Invitrogen, CA, USA). Cells were split 1:10 every 3 days.
All cells were incubated at 37° C. and 5% CO2. When treated with pertussis toxin (PTX, catalogue number P7208, Sigma-Aldrich, NY, USA), cells were incubated with 500 ng/mL for 15 hours before use. Cells treated with MEK inhibitor PD98059 (catalogue number PHZ1164, Invitrogen, CA, USA) were preincubated with 50 μM for 1 hour before use.
Cells were placed in 12-well plates (NUNC™, NY, USA) and allowed to adhere for 24-36 h. […] For agonist assays, cells were challenged with compounds for 35 minutes and incubated at 37° C. (5% CO2).
Membranes were washed 3×10 minutes with TBE (with 0.1% Tween-20) and incubated with a primary antibody. For pERK, rabbit polyclonal ERK1+2 [pTpY185/187] […] Instead, rabbit IgG Phospho-ERK1 (T202/Y204)/ERK2 (T185/Y187) (1:2000, catalogue number AF1018, R&D Systems, MN, USA) was used. […] After multiple washes, the membranes were developed using ECL Detection Solution (Amersham Biosciences) and visualized using photographic film. Radiography was quantified using ImageJ (ImageI 1.36b, NIH).
pERK and total ERK concentrations were determined using a modified protocol for the AlphaScreen Surefire Assay. The modified protocol used half the volume of reagents recommended in the manufacturers' protocol with 2 μL of cell extract in both pERK and total ERK assays. The ratio of pERK to total ERK was determined using equation 1 and normalized to control. For agonist responses, the controls used were PBS (0%) and 1 μM nociceptin1-17-OH (100%). For antagonist responses, the controls used were PBS (100%) and 100 nM nociceptin1-17-NH2 (100%).
Concentration responses were analyzed using non-linear regression (variable slope) (Prism5, GraphPad Software) and data is presented as either EC50 (for agonists) or IC50 (antagonists).
Helix constrained and unconstrained peptides were pre-screened using the pERK assay at a single concentration.

Series [1] can be described thus: Circular dichroism spectroscopy (helicity). The class given is physicochemical. Particulars: for fH (buffer) / θ222/208 (buffer): 10 mM phosphate buffer (pH 7.4) at 22° C.; for fH (buffer): fH calculated based on θ at 222 nm; for fH (TFE*): buffer: TFE 50:50, 22° C. As to the method:
CD measurements were performed using a Jasco model J-710 spectropolarimeter which was routinely calibrated with (1S)-(+)-10-camphorsulfonic acid. A stock solution of 1-2 mg of peptide was dissolved in 1 mL of water. Separate 500 μL solutions of 50, 100, 200 and 400 μM were then prepared using an appropriate amount of stock solution and making up the different with 10 mM Phosphate Buffer (final pH 7.1). […] Jasco quartz cell over the wavelength range 260-185 nm at 100 nm/min. with a bandwidth of 1.0 nm, response time of 2 s, resolution step width of 1 nm and sensitivity of 20-50 Mdeg. Each spectrum represents the average of 5 scans. Spectra were analyzed using the spectral analysis software and smoothed using ‘adaptive smoothing’ function. Concentrations were determined using the PULCON method. [Wider, Dreier, 2006, J. Am. Chem. Soc. 128:2571-2576]
The incorporation of two lactam bridges induced appreciable helicity, monitored at 222 nm, and was calculated to range between 32-77% helicity. By comparison, the unconstrained nociceptin peptides (SEQ ID NOs:1-5, 9 and 10) had less than 6% α-helicity in water. […] This is due to the fact that residues 1-6 (or 1-5 in 6) are not constrained and would not be expected to be in a helical conformation as they feature amino acids that have little or no propensity to adopt helices in proteins. To determine whether the exocyclic regions were the sole cause of low helicity, SEQ ID NO:15 without the N-terminal message was investigated further. This 12-residue peptide features eight residues (K, R, Q) known to favor α-helicity in proteins, and was 60% helical in phosphate buffer by CD spectral analysis. The serine residue is conserved within the sequence of many of these peptides and is known to be a helix breaker.

As to `CC(=O)NCCCC[C@H](NC(=O)CNC(=O)[C@@H](NC(=O)[C@H](Cc1ccccc1)NC(=O)CNC(=O)CNC(=O)[C@@H](N)Cc1ccccc1)[C@@H](C)O)C(=O)N[C@@H](CCCNC(=N)N)C(=O)N[C@@H](CCCCN)C(=O)N[C@@H](CO)C(=O)N[C@@H](CC(N)=O)C(=O)N[C@@H](CCCNC(=N)N)C(=O)N[C@@H](CCCCN)C(=O)N[C@@H](CCCCNC(C)=O)C(=O)N[C@@H](C)C(=O)N[C@@H](CC(N)=O)C(=O)N[C@@H](CCC(N)=O)C(=O)N[C@@H](CC(N)=O)C(N)=O` [SEQ ID NO:4, H-FGGFTGK(Ac)RKSNRKK(Ac)ANQN-NH2], the EC50 at ORL-1 receptor (35 minutes) was found to be 360 nM.

With `C[C@H](NC(=O)[C@H](CCC(N)=O)NC(=O)[C@H](CC(N)=O)NC(=O)[C@H](C)NC(=O)[C@H](C)NC(=O)[C@H](CCCCN)NC(=O)[C@H](CCCNC(=N)N)NC(=O)[C@H](C)NC(=O)[C@H](CO)NC(=O)[C@H](CCCCN)NC(=O)[C@H](CCCNC(=N)N)NC(=O)[C@H](C)NC(=O)CNC(=O)[C@@H](NC(=O)[C@H](Cc1ccccc1)NC(=O)CNC(=O)CNC(=O)[C@@H](N)Cc1ccccc1)[C@@H](C)O)C(N)=O` [SEQ ID NO:5], the EC50 on ORL-1 receptor (35 minutes) turned out to be 4 nM.

`CC(C)C[C@@H]1NC(=O)[C@H](CCCCN)NC(=O)[C@H](CCCNC(=N)N)NC(=O)[C@@H](NC(=O)[C@@H]2CC(=O)NCCCC[C@H](NC(=O)[C@@H](NC(=O)[C@H](Cc3ccccc3)NC(=O)CNC(=O)CNC(=O)[C@@H](N)Cc3ccccc3)[C@@H](C)O)C(=O)N[C@@H](C)C(=O)N[C@@H](CCCNC(=N)N)C(=O)N[C@@H](CCCCN)C(=O)N2)CCCCNC(=O)C[C@@H](C(N)=O)NC1=O` [SEQ ID NO:6, H-FGGFT[KARKD][KRKLD]-NH2]: the half-maximal effective concentration (EC50) at ORL-1 receptor (35 minutes) is 3 nM. In addition, the “log EC50” value on ORL-1 receptor is −8.51±0.14.

With `C[C@@H]1NC(=O)[C@@H](NC(=O)[C@H](CCCCN)NC(=O)[C@H](CCCNC(=N)N)NC(=O)[C@@H]2CC(=O)NCCCC[C@H](NC(=O)CNC(=O)[C@@H](NC(=O)[C@H](Cc3ccccc3)NC(=O)CNC(=O)CNC(=O)[C@@H](N)Cc3ccccc3)[C@@H](C)O)C(=O)N[C@@H](CCCNC(=N)N)C(=O)N[C@@H](CCCCN)C(=O)N[C@@H](CO)C(=O)N2)CCCCNC(=O)C[C@@H](C(N)=O)NC(=O)[C@H](CCC(N)=O)NC(=O)[C@H](CC(N)=O)NC1=O` [SEQ ID NO:7, H-FGGFTG[KRKSD]RK[KANQD]-NH2], at ORL-1 receptor, the EC50 was found to be 0.61 nM and the “log EC50” value is −9.22±0.08.

Consider `CC(C)C[C@H](NC(=O)[C@H](CCCCN)NC(=O)[C@H](CCCNC(=N)N)NC(=O)[C@H](C)NC(=O)[C@H](CO)NC(=O)[C@H](CCCCN)NC(=O)[C@H](CCCNC(=N)N)NC(=O)[C@H](C)NC(=O)CNC(=O)[C@@H](NC(=O)[C@H](Cc1ccc(F)cc1)NC(=O)CNC(=O)CNC(=O)CNCc1ccccc1)[C@@H](C)O)C(=O)N[C@@H](CCCCN)C(=O)N[C@@H](CC(N)=O)C(=O)N[C@@H](CCC(N)=O)C(N)=O` [SEQ ID NO:10], for which the “agonist activity at single point concentration” value on ORL-1 receptor (1 μM) is listed as “neither showed significant agonist activity”.

In the case of `CC(C)C[C@H](NC(=O)[C@H](CCCCN)NC(=O)[C@H](CCCNC(=N)N)NC(=O)[C@H](C)NC(=O)[C@H](CO)NC(=O)[C@H](CCCCN)NC(=O)[C@H](CCCNC(=N)N)NC(=O)[C@H](C)NC(=O)CNC(=O)[C@@H](NC(=O)[C@H](Cc1ccccc1)NC(=O)CNC(=O)CNC(=O)[C@@H](N)Cc1ccccc1)[C@@H](C)O)C(=O)N[C@@H](C)C(=O)N[C@@H](CC(N)=O)C(=O)N[C@@H](CCC(N)=O)C(N)=O` [compound 2], in series [1], the “fH (buffer)” value is 0.02 and the “fH (TFE*)” value was found to be 0.10.

`CC(C)C[C@H](NC(=O)[C@H](CCCCN)NC(=O)[C@H](CCCNC(=N)N)NC(=O)[C@H](C)NC(=O)[C@H](CO)NC(=O)[C@H](CCCCN)NC(=O)[C@H](CCCNC(=N)N)NC(=O)[C@H](C)NC(=O)CNC(=O)[C@@H](NC(=O)[C@H](Cc1ccc(F)cc1)NC(=O)CNC(=O)CNC(=O)[C@@H](N)Cc1ccccc1)[C@@H](C)O)C(=O)N[C@@H](CCCCN)C(=O)N[C@@H](CC(N)=O)C(=O)N[C@@H](CCC(N)=O)C(N)=O` [compound 3]: in series [1], the “θ222/208 (buffer)” value was −0.10, the “fH (buffer)” value is 0.02 and the “fH (TFE*)” value worked out at 0.10. At ORL-1 receptor, this compound yielded an Emax of 108 ± 9%. Also, on ORL-1 receptor (35 minutes), the “-log EC50 ± SEM” value turned out to be 9.44 ± 0.12 and the EC50 came out at 0.36 nM.

With `CC(=O)NCCCC[C@H](NC(=O)CNC(=O)[C@@H](NC(=O)[C@H](Cc1ccccc1)NC(=O)CNC(=O)CNC(=O)[C@@H](N)Cc1ccccc1)[C@@H](C)O)C(=O)N[C@@H](CCCNC(=N)N)C(=O)N[C@@H](CCCCN)C(=O)N[C@@H](CO)C(=O)N[C@@H](CC(N)=O)C(=O)N[C@@H](CCCNC(=N)N)C(=O)N[C@@H](CCCCN)C(=O)N[C@@H](CCCCNC(C)=O)C(=O)N[C@@H](C)C(=O)N[C@@H](CC(N)=O)C(=O)N[C@@H](CCC(N)=O)C(=O)N[C@@H](CC(N)=O)C(N)=O` [compound 4], in series [1], the “θ222/208 (buffer)” value is reported as 0.03, the “fH (buffer)” value is 0.03 and the “fH (TFE*)” value came to 0.13. At ORL-1 receptor, the Emax is 99 ± 8%. Further, the “-log EC50 ± SEM” value at ORL-1 receptor (35 minutes) came to 6.45 ± 0.08.

With `C[C@H](NC(=O)[C@H](CCC(N)=O)NC(=O)[C@H](CC(N)=O)NC(=O)[C@H](C)NC(=O)[C@H](C)NC(=O)[C@H](CCCCN)NC(=O)[C@H](CCCNC(=N)N)NC(=O)[C@H](C)NC(=O)[C@H](CO)NC(=O)[C@H](CCCCN)NC(=O)[C@H](CCCNC(=N)N)NC(=O)[C@H](C)NC(=O)CNC(=O)[C@@H](NC(=O)[C@H](Cc1ccccc1)NC(=O)CNC(=O)CNC(=O)[C@@H](N)Cc1ccccc1)[C@@H](C)O)C(N)=O` [compound 5], in series [1], the “θ222/208 (buffer)” value is on record as −0.11, the “fH (buffer)” value was 0.02 and the “fH (TFE*)” value stood at 0.21. Moreover, the Emax on ORL-1 receptor is 93 ± 7%. Besides, at ORL-1 receptor (35 minutes), the “-log EC50 ± SEM” value was 8.42 ± 0.15.

As to `CC(C)C[C@@H]1NC(=O)[C@H](CCCCN)NC(=O)[C@H](CCCNC(=N)N)NC(=O)[C@@H](NC(=O)[C@@H]2CC(=O)NCCCC[C@H](NC(=O)[C@@H](NC(=O)[C@H](Cc3ccccc3)NC(=O)CNC(=O)CNC(=O)[C@@H](N)Cc3ccccc3)[C@@H](C)O)C(=O)N[C@@H](C)C(=O)N[C@@H](CCCNC(=N)N)C(=O)N[C@@H](CCCCN)C(=O)N2)CCCCNC(=O)C[C@@H](C(N)=O)NC1=O` [compound 6], in series [1], the “θ222/208 (buffer)” value was found to be 1.00 and the “fH (buffer)” value is given as 0.54. Besides, on ORL-1 receptor, the Emax stood at 96 ± 8%. On ORL-1 receptor (35 minutes), the “-log EC50 ± SEM” value was determined as 8.51 ± 0.14.

`C[C@@H]1NC(=O)[C@@H](NC(=O)[C@H](CCCCN)NC(=O)[C@H](CCCNC(=N)N)NC(=O)[C@@H]2CC(=O)NCCCC[C@H](NC(=O)CNC(=O)[C@@H](NC(=O)[C@H](Cc3ccccc3)NC(=O)CNC(=O)CNC(=O)[C@@H](N)Cc3ccccc3)[C@@H](C)O)C(=O)N[C@@H](CCCNC(=N)N)C(=O)N[C@@H](CCCCN)C(=O)N[C@@H](CO)C(=O)N2)CCCCNC(=O)C[C@@H](C(N)=O)NC(=O)[C@H](CCC(N)=O)NC(=O)[C@H](CC(N)=O)NC1=O` [compound 7]: in series [1], the “θ222/208 (buffer)” value is reported as 0.91 and the “fH (buffer)” value was 0.32. Further, the Emax on ORL-1 receptor is 94 ± 3%. At ORL-1 receptor (35 minutes), the “-log EC50 ± SEM” value was 9.22 ± 0.08 and the EC50 is 0.61 nM.

As a reminder, the EC50 is the midpoint of the concentration-response curve. Usually Emax stands for the size of the effect at its maximum, as opposed to the concentration needed.

The values are drawn from US8921306B2, “Nociceptin mimetics” (The University of Queensland, priority 2010, dated 2014).
